Reference: PMC5624946, “Extrapyramidal side effects of antipsychotics are linked to their association kinetics at dopamine D2 receptors” (Nature Communications, 2017)

Protein sequences, listed by entry. Tags and fused reporters are not part of them. Lines headed by an entry give the natural chain unless they say otherwise; changes in a name come on top.
UniProt P14416, whole entry: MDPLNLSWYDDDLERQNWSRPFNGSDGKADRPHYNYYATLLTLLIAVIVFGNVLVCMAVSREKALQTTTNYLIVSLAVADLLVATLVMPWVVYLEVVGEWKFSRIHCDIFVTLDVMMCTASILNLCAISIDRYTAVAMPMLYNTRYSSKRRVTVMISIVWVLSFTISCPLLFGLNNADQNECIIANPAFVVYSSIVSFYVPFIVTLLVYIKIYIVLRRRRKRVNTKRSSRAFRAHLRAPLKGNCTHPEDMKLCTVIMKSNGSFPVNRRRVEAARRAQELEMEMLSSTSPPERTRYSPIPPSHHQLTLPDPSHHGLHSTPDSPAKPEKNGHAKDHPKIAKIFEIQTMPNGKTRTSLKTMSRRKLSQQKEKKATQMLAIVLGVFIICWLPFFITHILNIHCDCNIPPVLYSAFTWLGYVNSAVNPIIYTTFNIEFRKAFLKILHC

Columns and labels:
[1] = target: T1, human D2L receptors (Homo sapiens, UniProt P14416); assay: Competition kinetic binding with PPHT-red tracer (TR-FRET, Motulsky-Mahan); details: dissociation half-life from k off
[2] = target: T1, human D2L receptors; assay: biochemical
[3] = target: T1, human D2L receptors; assay: Equilibrium competition binding with PPHT-red (TR-FRET)

Compound | t 1/2 [1] [s] | Kd [2] [nM] | Ki [3] [nM]
CSc1ccc2c(c1)N(CCC1CCCCN1C)c1ccccc1S2 (stereo not drawn) [Thioridazine, thioridazine hydrochloride] | 29.4 | – | –
CCN1CCC[C@H]1CNC(=O)c1c(O)c(Cl)cc(Cl)c1OC [Raclopride, raclopride] | – | 0.832 | 1.23

Counter-ions that a name gives are not always drawn.
